Data published in publication PMC8928223.

The chains behind the UniProt entries cited, without tags or fusion partners. Residues count along the entry.
UniProt Q08345, 19-913: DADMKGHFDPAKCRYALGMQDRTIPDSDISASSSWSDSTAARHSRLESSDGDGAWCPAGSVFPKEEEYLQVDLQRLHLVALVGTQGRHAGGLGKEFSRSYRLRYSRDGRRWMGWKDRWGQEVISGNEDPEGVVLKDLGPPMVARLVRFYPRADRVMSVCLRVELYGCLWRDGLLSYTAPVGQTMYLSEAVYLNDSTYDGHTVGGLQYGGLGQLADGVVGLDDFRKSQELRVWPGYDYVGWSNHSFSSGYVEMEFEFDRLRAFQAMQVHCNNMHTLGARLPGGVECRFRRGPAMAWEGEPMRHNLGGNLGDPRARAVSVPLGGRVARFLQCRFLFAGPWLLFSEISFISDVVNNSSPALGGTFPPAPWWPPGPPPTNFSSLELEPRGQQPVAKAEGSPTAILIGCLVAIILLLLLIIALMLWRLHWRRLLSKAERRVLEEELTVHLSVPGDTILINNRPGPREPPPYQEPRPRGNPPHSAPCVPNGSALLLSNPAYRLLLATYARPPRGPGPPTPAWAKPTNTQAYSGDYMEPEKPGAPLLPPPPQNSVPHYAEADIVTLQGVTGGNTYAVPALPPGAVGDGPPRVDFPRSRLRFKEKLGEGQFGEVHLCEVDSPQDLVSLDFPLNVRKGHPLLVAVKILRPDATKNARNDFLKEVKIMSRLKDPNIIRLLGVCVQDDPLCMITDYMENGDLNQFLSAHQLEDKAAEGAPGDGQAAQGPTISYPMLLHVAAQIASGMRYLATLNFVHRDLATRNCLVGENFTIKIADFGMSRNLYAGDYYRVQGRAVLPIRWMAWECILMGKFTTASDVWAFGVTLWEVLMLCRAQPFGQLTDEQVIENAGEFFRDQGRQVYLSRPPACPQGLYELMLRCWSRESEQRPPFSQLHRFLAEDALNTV

Target: DDR1b-Turbo containing a Flag tag (human) (UniProt Q08345)
Assay: proximity labelling; BioID with turbo-Flag fused to DDR1 in HEK cells plated on collagen I (30 µg/ml) for 1-3 h with 50 µM biotin; streptavidin-agarose pull-down of the lysate and Western blot

- fold increase in biotinylated talin against DDR1a-turbo cells: 2.29 fold
Substance: talin, Q9Y490 1-2541
